According to patent US20080176838A1, “Dpp-IV Inhibitors” (SANTHERA PHARMACEUTICALS (DEUTSCHLAND) AG, priority 2004, published 2008):
Where two headings read alike, the source gives them in different places.

Chains of the proteins cited; added tags and fusions are not shown. Residues count along the entry.
UniProt P27487, 31-766 limits assumed: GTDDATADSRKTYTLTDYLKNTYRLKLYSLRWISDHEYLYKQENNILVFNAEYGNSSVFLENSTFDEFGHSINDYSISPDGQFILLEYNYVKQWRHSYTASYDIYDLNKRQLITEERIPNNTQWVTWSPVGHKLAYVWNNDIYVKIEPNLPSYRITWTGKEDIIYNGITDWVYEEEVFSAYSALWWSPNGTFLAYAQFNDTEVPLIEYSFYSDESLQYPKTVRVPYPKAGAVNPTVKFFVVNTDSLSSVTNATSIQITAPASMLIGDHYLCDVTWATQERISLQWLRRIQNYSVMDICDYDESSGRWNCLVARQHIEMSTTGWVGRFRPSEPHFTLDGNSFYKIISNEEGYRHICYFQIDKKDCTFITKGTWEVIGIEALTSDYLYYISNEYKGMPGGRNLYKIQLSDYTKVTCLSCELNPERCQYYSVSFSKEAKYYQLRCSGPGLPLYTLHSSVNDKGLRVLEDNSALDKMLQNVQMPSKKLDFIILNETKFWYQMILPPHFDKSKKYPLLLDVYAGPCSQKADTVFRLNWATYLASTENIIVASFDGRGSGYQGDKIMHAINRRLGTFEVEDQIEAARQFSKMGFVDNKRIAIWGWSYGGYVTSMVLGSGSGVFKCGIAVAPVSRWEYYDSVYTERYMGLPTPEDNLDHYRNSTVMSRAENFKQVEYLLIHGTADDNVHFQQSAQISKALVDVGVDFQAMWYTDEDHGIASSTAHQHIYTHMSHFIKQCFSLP

Target: DPP-IV (Homo sapiens, UniProt P27487)
Assay: Continuous fluorimetric assay of inhibition of DPP-IV peptidase activity (cleavage of Gly-Pro-AMC)
Format: biochemical
Conditions: read-out: IC50 for inhibition of DPP-IV peptidase activity, substrate Gly-Pro-AMC 16 μM, pH 7.4, 25° C., 1% DMSO

Structure (SMILES)	IC50 (tested form: TFA) [nM]	IC50 [nM]	IC50 (tested form: bis(trifluoroacetate)) [nM]
CC(C[C@H](N)Cc1ccccc1F)N1CCC[C@H]1CNS(=O)(=O)c1ccc(S(C)(=O)=O)cc1 (single isomer, unassigned)	< 100	–	–
CC(C[C@H](N)Cc1ccccc1F)N1CCC[C@H]1CNS(C)(=O)=O (single isomer, unassigned)	–	101 to 1000	< 100
CC(C[C@H](N)Cc1ccccc1F)N1CCC[C@H]1CNS(=O)(=O)Cc1ccccc1 (single isomer, unassigned) [39 major]	101 to 1000	–	–
CC(C[C@H](N)Cc1ccccc1F)N1CCC[C@H]1CNS(=O)(=O)Cc1ccccc1 (single isomer, unassigned) [39 minor]	< 100	–	–
CC(C[C@H](N)Cc1ccccc1F)N1CCC[C@H]1CNS(=O)(=O)c1cccc(Cl)c1 (single isomer, unassigned) [40 major]	101 to 1000	–	–
CC(C[C@H](N)Cc1ccccc1F)N1CCC[C@H]1CNS(=O)(=O)c1cccc(Cl)c1 (single isomer, unassigned) [40 minor]	< 100	–	–
CC(C[C@H](N)Cc1ccccc1F)N1CCC[C@H]1CNS(=O)(=O)C1CC1 (single isomer, unassigned) [42 major]	101 to 1000	–	–
CC(C[C@H](N)Cc1ccccc1F)N1CCC[C@H]1CNS(=O)(=O)C1CC1 (single isomer, unassigned) [42 minor]	< 100	–	–
